Results taken from ChEMBL document CHEMBL1148652, “Design of potent, orally available antagonists of the transient receptor potential vanilloid 1. Structure-activity relationships of 2-piperazin-1-yl-1H-benzimidazoles” (J Med Chem, 2006).

Protein sequences, listed by entry. Tags and fused reporters are not part of them.
UniProt O35433, whole entry: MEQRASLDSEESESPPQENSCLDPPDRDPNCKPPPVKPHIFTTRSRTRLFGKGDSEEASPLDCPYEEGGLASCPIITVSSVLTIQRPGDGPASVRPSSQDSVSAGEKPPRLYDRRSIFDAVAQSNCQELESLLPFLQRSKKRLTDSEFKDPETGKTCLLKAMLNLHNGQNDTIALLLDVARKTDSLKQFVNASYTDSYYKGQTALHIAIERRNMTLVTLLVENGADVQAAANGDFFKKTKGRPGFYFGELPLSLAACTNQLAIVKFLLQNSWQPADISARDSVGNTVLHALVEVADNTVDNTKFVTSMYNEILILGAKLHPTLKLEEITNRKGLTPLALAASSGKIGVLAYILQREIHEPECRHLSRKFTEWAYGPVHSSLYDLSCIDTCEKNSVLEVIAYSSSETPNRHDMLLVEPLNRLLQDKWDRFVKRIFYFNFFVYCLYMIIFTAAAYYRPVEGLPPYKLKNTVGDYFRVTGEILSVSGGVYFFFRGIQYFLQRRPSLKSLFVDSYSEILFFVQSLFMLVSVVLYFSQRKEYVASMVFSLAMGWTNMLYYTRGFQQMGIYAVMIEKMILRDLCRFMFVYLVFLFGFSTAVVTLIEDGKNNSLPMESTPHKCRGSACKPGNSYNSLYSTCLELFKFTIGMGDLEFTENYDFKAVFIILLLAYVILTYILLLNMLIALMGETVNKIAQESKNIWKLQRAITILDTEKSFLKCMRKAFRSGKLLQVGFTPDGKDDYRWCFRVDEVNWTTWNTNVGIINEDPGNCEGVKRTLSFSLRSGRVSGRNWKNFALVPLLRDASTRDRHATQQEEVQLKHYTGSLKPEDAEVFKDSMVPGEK

Assays:
[1] = target: T1, Transient receptor potential cation channel subfamily V member 1 (Rattus norvegicus, UniProt O35433); test: Antagonist activity against capsaicin-induced 45calcium ion uptake in CHO cells expressing rat TRPV1; type: functional, cell-based
Procedure, shortened: (§1)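 CHO cells recombinantly expressing rat TRPV1; inhibition of 45Ca2+ uptake triggered by capsaicin or by acid, pH 5. Functional IC50 in nM, averaged over at least two independent experiments, each with three replicates per concentration.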

[2] = target: T1, Transient receptor potential cation channel subfamily V member 1; test: Antagonist activity against acid-induced 45calcium ion uptake in CHO cells expressing rat TRPV1 at pH5; type: functional, cell-based; procedure, shortened: as §1

IC50 [1] | IC50 [2] | SMILES
0.0004 µM | 0.0005 µM | CC(C)(C)c1ccc(NC(=O)N2CCN(c3ncccc3Cl)CC2)cc1
5.79 µM | > 40 µM | FC(F)(F)c1ccc2[nH]c(N3CCN(c4ccccn4)CC3)nc2c1
0.013 µM |  | CC(C)(C)c1ccc(-c2cc(C(F)(F)F)cc3[nH]c(N4CCN(c5ncccc5C(F)(F)F)CC4)nc23)cc1
23.8 µM | > 40 µM | CCOC(=O)c1cccnc1N1CCN(c2nc3ccc(C(F)(F)F)cc3[nH]2)CC1
